By UniProt entry, the sequences of proteins in these tests, tags left out.
UniProt P11229, whole entry: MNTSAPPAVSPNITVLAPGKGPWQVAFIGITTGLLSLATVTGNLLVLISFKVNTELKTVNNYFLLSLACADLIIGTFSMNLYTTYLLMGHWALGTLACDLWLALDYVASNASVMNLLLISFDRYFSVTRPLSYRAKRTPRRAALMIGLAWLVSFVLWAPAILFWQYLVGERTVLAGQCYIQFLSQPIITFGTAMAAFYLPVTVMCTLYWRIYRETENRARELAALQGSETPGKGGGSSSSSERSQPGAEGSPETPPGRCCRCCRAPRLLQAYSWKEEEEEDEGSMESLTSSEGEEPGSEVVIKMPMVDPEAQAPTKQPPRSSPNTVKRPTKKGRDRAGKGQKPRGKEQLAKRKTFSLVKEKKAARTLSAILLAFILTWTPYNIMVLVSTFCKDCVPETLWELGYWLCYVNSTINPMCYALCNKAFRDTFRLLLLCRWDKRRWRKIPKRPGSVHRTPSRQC

For this experiment, the target named is acetylcholine muscarinic M1 receptor (Homo sapiens, UniProt P11229). Put plainly: muscarinic M1 FLIPR intracellular calcium assay (positive allosteric modulation, EC20 acetylcholine). To be noted: read-out: IP Value; inflection point from FLIPR values; CHOnfat/hM1 cells; 4 min preincubation, then EC20 acetylcholine (3 nM final). How it is done: The assay studies the effect of one or several concentrations of test compounds on basal or acetylcholine-stimulated Ca^2+ levels using FLIPR.
Compounds are prepared and subjected to a preincubation period of 4 min. Thereafter, a single EC20 concentration of acetylcholine is added to each well (3 nM final). The intracellular Ca^2+ level of each sample is measured and compared to an acetylcholine control to determine any modulatory activity.
Cells: CHOnfat/hM1, hM2, hM3 or hM4 cells are plated 24 hr before the assay at a density of 18,000 cells/well (100 μL) in a 384 well plate. CHOnfat/hM1 and CHOnfat/hM3 Growth Medium: 90% DMEM (Hi Glucose); 10% HI FBS; 2 mM L-glutamine; 0.1 mM NEAA; Pen-Strep; and 1 mg/ml Geneticin, are added. For M2Gqi5CHOnfat and M4Gqi5CHOnfat cells, an additional 600 μg/ml hygromycin is added.
Equipment: 384 well plate, 120 μL addition plate; 96-well Whatman 2 ml Uniplate Incubator, 37° C., 5% CO2; Skatron EMBLA-384 Plate Washer; Multimek Pipetting System; Genesis Freedom 200 System; Mosquito System; Temo Nanolitre Pipetting System; and FLIPR^384 Fluorometric Imaging Plate Reader System are used.
Buffers. Assay Buffer: Hanks Balanced Salt Solution, with 20 mM Hepes, 2.5 mM Probenecid (Sigma P-8761) first dissolved in 1N aqueous NaOH, 1% Bovine Serum Albumin (Sigma A-9647). Dye Loading Buffer: Assay Buffer plus 1% Fetal Bovine Serum and Fluo-4AM/Pluronic Acid Mixture. 2 mM Fluo-4AM ester stock in DMSO (Molecular Probes F-14202) Concentration of 2 μM in buffer for a final concentration of 1 μM in Assay. 20% Pluronic Acid Solution stock, with a concentration of 0.04% in Buffer, 0.02% in Assay.
65 μl of 2 mM Fluo-4AM are mixed with 130 μL of 20% Pluronic Acid. The resulting solution and 650 μL FBS is added to the assay buffer for a total volume of 65 mL. Positive Controls: 4-Br-A23187: 10 mM in DMSO; final concentration 10 μM. Acetylcholine: 10 mM in water, working stock at both 20 μM and 30 μM in assay buffer, final concentration of 10 μM. This is used to check the maximum stimulation of the CHOK1/hM1 cells. 20 μM (2×) acetylcholine is added in the preincubation part of the assay, and the 30 μM (3×) stock is added in the second part. (EC20)Acetylcholine: 10 mM in water, working stock of 9 nM (3×), and final concentration in assay is 3 nM. This is used after the preincubation with test compounds. Addition of the EC20 Acetylcholine to each well with a test compound will ascertain any modulator activity. 24 wells contain 3 nM Acetylcholine alone as a control.
Determining Activity of Putative Compounds:
Screening Plate: Compounds are titrated in 96-well plates (columns 2-11), 100% DMSO, started at a concentration of 15 mM (150× stock concentration), and 3-fold serial dilutions using Genesis Freedom200 System. Four 96-well plates are combined into a 384-well plate using Mosquito Nanolitre Pipetting System by transferring 1 μl of serial diluted compounds to each well, and 1 mM acetylcholine (100× stock concentration) were added as a control. Using Temo, 49 μl assay buffer is added to each well of the 384-well plate right before assay.
In a 96-well Whatman 2 ml Uniplate, 9 nM Acetylcholine (3×) is pipetted into wells corresponding to the screening compounds and into control wells. […]
After 60 min, the cells are washed three times with 100 μL of buffer, leaving 30 μL of buffer in each well. […] A signal test to check background fluorescence and basal fluorescence signal is performed. […]
Take `O=C(O)c1cc(Cc2ccc(-c3cccnc3)cc2)c2ccccn2c1=O`: the EC50 stood at 75 nM.

Take `O=C(O)c1cc(Cc2ccc(-c3ccncc3)cc2)c2ccccn2c1=O`: the EC50 was found to be 74 nM.

Turning to `O=C(O)c1cc(Cc2ccc(-c3ccncc3)cn2)c2ccccn2c1=O`, the EC50 is 23 nM.

Consider `O=C(O)c1cc(Cc2ccc(-c3cn[nH]c3)cc2)c2ccccn2c1=O`, for which the EC50 is 29 nM.

Take `O=C(O)c1cc(Cc2ccc(-c3ccccn3)cc2)c2ccccn2c1=O`: the EC50 is 61 nM.

Values taken from patent US8278453B2, “Quinolizidinone M1 receptor positive allosteric modulators” (Merck Sharp & Dohme Corp., priority 2008, dated 2012).
